From paper PMC7919490, “Effect of C-terminus Conjugation via Different Conjugation Chemistries on In Vivo Activity of Albumin-Conjugated Recombinant GLP-1” (Pharmaceutics, 2021)

Amino acid sequences for entries named in this document (tags omitted). Residues count along the entry.
UniProt P43220, 24-463: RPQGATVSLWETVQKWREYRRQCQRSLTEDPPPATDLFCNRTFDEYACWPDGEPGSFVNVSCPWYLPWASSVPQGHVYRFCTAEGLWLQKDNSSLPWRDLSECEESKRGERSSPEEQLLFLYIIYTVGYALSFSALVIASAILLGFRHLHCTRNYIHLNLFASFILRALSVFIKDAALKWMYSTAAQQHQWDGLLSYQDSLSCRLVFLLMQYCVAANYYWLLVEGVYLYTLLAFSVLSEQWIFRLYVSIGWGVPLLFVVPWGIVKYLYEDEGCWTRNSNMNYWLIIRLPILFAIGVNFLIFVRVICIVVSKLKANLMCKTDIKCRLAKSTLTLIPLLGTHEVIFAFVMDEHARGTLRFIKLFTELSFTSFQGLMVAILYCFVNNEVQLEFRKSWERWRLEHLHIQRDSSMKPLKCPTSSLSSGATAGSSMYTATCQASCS

Tests used:
GLP-1R = biological target: T1, GLP-1R (Homo sapiens, UniProt P43220); test: In vitro activity assay: cAMP production by GLP-1R-overexpressing HEK-293 cells; assay type: cell-based
T1 construct: Tango fusion cassette (named only as '_tango' in the plasmid name); host or cells: HEK293 (ATCC), transiently transfected
Procedure: The plasmid pcDNA3.1-GLP-1R_tango (Addgene, Cambridge, MA, USA) and transfection reagent were then mixed in serum-free medium for 20 min, in accordance with the manufacturer’s recommendation. […] The levels of cAMP in the cell lysate were measured using the cAMP Parameter Assay Kit following the manufacturer’s protocol. […] The half maximal effective concentrations (EC50) of each curve were estimated from a dose–response curve using OriginPro software. Absorbance at 450 nm was monitored using a Varioskan Lux microplate reader (Thermo Fisher Scientific).

GLP-1 receptor (GLP-1R) = GLP-1 receptor (GLP-1R) (UniProt P43220)

## CC[C@H](C)[C@H](NC(=O)[C@H](Cc1ccccc1)NC(=O)[C@H](CCC(=O)O)NC(=O)[C@H](CCCCN)NC(=O)[C@H](C)NC(=O)[C@H](C)NC(=O)[C@H](CCC(N)=O)NC(=O)CNC(=O)[C@H](CCC(=O)O)NC(=O)[C@H](CC(C)C)NC(=O)[C@H](Cc1ccc(O)cc1)NC(=O)[C@H](CO)NC(=O)[C@H](CO)NC(=O)[C@@H](NC(=O)[C@H](CC(=O)O)NC(=O)[C@H](CO)NC(=O)[C@@H](NC(=O)[C@H](Cc1ccccc1)NC(=O)[C@@H](NC(=O)CNC(=O)[C@H](CCC(=O)O)NC(=O)CNC(=O)[C@@H](N)Cc1c[nH]cn1)[C@@H](C)O)[C@@H](C)O)C(C)C)C(=O)N[C@@H](C)C(=O)N[C@@H](Cc1c[nH]c2ccccc12)C(=O)N[C@@H](CC(C)C)C(=O)N[C@H](C(=O)N[C@@H](CCCNC(=N)N)C(=O)NCC(=O)N[C@@H](CCCNC(=N)N)C(=O)NCC(=O)O)C(C)C [GLP1_8GWT]
GLP-1R
  EC50: 13.2 nM

## GLP1_8GWT (peptide)
GLP-1 receptor (GLP-1R)
  EC50 of cAMP production by GLP-1R-overexpressing HEK-293 cells: 13.2 nM
